Measurements published in patent publication US4318904A, “Peptide affinity labels for thrombin and other trypsin-like proteases” (Research Corporation, priority 1980, dated 1982).

Columns and labels:
thrombin = thrombin (Homo sapiens, UniProt P00734); assay: Inactivation of human thrombin, residual esterase activity; assay type: biochemical; settings: pH 7, read-out: k2 /Ki
mice = assay: LD50 in mice; assay type: in vivo
Text: This level of inhibitor is a 100-1000 times greater than the LD50 of the reagent in mice.

bovine thrombin [1] = target: T1, bovine thrombin (Bos taurus, UniProt P00735); settings: 4.5×10^-7 M thrombin + 2.25×10^-7 M label; theoretical value 50%
bovine thrombin [2] = target: T1, bovine thrombin; assay: Inactivation of bovine thrombin, remaining esterase (thioesterase) activity; assay type: biochemical; parameters: Thrombin itself is generated from a pro-enzyme, prothrombin, by the enzymatic action of another proteolytic enzyme, factor Xa

Compound: N=C(N)NCCC[C@H](NC(=O)[C@@H]1CCCN1C(=O)[C@H](N)Cc1ccccc1)C(=O)CCl [D-Phe-Pro-ArgCH2 Cl, D-Phe-Pro-Arg-CH2 Cl.2HCl]
- kinact/KI (thrombin): 1.15e+07 M⁻¹ s⁻¹
- level of inhibitor (1 mg in rabbits) relative to the LD50 in mice (mice): 100-1000 times
- inactivation of bovine thrombin by clotting assay (bovine thrombin [1]): 48%
- esterase activity of the protease inactivated (bovine thrombin [2]; 1.0×10^-8 M bovine thrombin + 1.0×10^-8 M label, in less than 5 min, 50 mM Pipes pH 7.0, 0.20 M NaCl, 25° C): 97%
- inactivation of bovine thrombin by esterase assay (bovine thrombin [2]; 4.5×10^-7 M thrombin + 2.25×10^-7 M label, theoretical value 50%): 51%
- inactivates the enzyme (thrombin) (bovine thrombin [2]; 10^-8 M affinity label, in less than 3 minutes): more than 95%
